Reference: patent US20210147508A1 (ACCELERON PHARMA, published 2021)
Where two headings read alike, the source gives them in different places.

By UniProt entry, the sequences of proteins in these tests, tags left out. Residues count along the entry.
UniProt P01137, 279-390 limits assumed: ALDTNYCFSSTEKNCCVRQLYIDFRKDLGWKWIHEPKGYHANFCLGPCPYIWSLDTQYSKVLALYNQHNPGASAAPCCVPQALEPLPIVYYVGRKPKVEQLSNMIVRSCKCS

Legend:
TGFβ1 (human) [1] = target: TGFβ1 (human) (UniProt P01137); assay: SPR (Biacore), anti-Fc capture
TGFβ1 (human) [2] = target: TGFβ1 (human) (UniProt P01137); assay: SPR (Biacore), anti-Fc capture; remark: listed apart in the source
TGFβ1 (human) [3] = target: TGFβ1 (human) (UniProt P01137); assay: cell-based or functional assay

Substance: TGFβRIISHORT-Fc homodimer (from UniProt P37173 23-166) (Fc fusion)
- Kd (TGFβ1 (human) [1]): 0.025 nM
- Kd (TGFβ1 (human) [2]): 0.02 nM
- IC50 (pM), inhibition of TGFβ1 (640 pg/mL), CAGA12-luciferase reporter in A549 cells (TGFβ1 (human) [3]): 90 pM
